The values below come from patent US7517885B2, “Substituted [4-(4-phenyl-piperazin-1-yl)-cyclohexyl]-urea compounds” (Janssen Pharmaceutica N.V., priority 2005, dated 2009).

By UniProt entry, the sequences of proteins in these tests, tags left out.
UniProt P35368, whole entry: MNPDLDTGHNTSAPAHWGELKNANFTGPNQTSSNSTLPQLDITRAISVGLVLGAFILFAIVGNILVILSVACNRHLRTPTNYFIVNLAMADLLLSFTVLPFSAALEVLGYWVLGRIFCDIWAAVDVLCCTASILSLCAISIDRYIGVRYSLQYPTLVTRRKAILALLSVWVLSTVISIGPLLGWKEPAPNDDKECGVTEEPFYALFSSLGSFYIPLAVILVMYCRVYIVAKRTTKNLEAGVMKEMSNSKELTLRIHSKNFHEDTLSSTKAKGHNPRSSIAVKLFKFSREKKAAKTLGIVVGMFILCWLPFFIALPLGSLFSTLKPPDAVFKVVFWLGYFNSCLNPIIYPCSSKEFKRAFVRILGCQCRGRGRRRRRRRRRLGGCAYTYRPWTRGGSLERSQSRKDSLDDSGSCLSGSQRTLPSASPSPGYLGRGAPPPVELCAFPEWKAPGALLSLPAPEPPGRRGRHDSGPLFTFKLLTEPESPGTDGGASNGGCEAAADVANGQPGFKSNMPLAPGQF
UniProt P25100, whole entry: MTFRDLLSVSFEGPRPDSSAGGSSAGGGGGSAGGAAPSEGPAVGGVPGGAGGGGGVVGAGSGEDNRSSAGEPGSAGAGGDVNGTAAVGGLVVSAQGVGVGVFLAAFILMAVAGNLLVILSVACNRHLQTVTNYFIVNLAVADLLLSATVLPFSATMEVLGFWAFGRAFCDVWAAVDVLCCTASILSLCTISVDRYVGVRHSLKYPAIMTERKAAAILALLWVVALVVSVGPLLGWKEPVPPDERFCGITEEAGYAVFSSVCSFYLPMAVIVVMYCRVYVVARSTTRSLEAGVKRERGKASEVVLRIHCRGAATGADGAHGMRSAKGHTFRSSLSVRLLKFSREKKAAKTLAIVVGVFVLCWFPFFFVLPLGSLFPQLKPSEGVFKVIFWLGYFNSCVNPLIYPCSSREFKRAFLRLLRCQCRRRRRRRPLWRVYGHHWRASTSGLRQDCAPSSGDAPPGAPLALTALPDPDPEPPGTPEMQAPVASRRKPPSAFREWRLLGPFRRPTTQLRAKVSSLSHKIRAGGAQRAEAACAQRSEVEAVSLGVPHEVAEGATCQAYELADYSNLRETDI

In one assay the target is T1, α1b-AR (Homo sapiens, UniProt P35368).
T1 construct: expressed in transfected cells; host or cells: COS-7 cells (membranes)
Nature of the assay: α1-Adrenergic Receptor Binding Assay (125I-HEAT radio-ligand), α1b subtype. Conditions: membranes of COS-7 cells transfected with α1b subtype; 125I-HEAT 50 pM; rt 1 hr. On the procedure: (§1) α1-Adrenergic Receptor Binding Assay
(§2) Preparation of COS Cell Membranes
(§3) Membranes were prepared from COS-7 cells (African Green monkey kidney SV40-transformed cells) that had been transfected with one of the three α1-AR subtypes (Genbank accession number for the α1a subtype: AF013261; Genbank accession number for the α1b subtype: NM000679; Genbank accession number for the α1d subtype: NM000678) using the following method: COS cells from ten 100 mm tissue culture plates were scraped into a 5 mL volume of TE (a mixture of 50 mM Tris-HCl, 5 mM EDTA, pH 7.4). The cell suspension was disrupted with a Brinkman Polytron (at a setting of 8) for 10 sec. The disrupted cells were centrifuged at 1000×g min at 4° C. Supernatants were centrifuged at 34,500×g for 20 min at 4° C. The membrane pellets were suspended in a 2 mL volume of TNE (a mixture of 50 mM Tris-HCl, 5 mM EDTA and 150 mM NaCl at pH 7.4). An aliquot of the membrane suspension was stored at −70° C. until use. The protein concentration was determined using the BioRad “DC” protein assay kit following membrane solubilization with Triton X-100.
(§4) Radio-Ligand Binding Assay
(§5) Triplicate determinations of radio-ligand binding in the presence of increasing concentrations of testing compound were made. The reagents were added to 96-well polypropylene plate wells. […] The plate was incubated at rt for 1 hr. The contents of the wells were filtered through a glass filter (type C) (GF/C) membrane Unifilter plate (Packard Instruments) using the Packard Filtermate cell harvester. The filter plates were dried in a vacuum oven for 30 min at 40° C. 25 μL Microscint 20 liquid scintillation fluid (Packard Instruments) was added to each well. The radioactive content was analyzed in the TopCount microplate scintillation counter (Packard Instruments).
`COc1ccc(NC(=O)N[C@H]2CC[C@@H](N3CCN(c4ccccc4OC(C)C)CC3)CC2)c(OC)c1` [Cpd 3, 1-(2,4-dimethoxy-phenyl)-r-3-{c-4-[4-(2-isopropoxy-phenyl)-piperazin-1-yl]-cyclohexyl}-urea] gave a Ki of 475 nM. `COc1ccc(NC(=O)N[C@H]2CC[C@H](N3CCN(c4ccccc4OC(C)C)CC3)CC2)c(OC)c1` [Cpd 4, 1-(2,4-dimethoxy-phenyl)-r-3-{t-4-[4-(2-isopropoxy-phenyl)-piperazin-1-yl]-cyclohexyl}-urea] came in with a Ki of 214 nM. In turn, `CC(C)Oc1ccccc1N1CCN([C@H]2CC[C@H](NC(=O)Nc3cccc(Cl)c3)CC2)CC1` [Cpd 12, 1-(3-chloro-phenyl)-r-3-{t-4-[4-(2-isopropoxy-phenyl)-piperazin-1-yl]-cyclohexyl}-urea] displayed a Ki of 70.8 nM. `CC(C)Oc1ccccc1N1CCN([C@H]2CC[C@H](NC(=O)Nc3c(Cl)cccc3Cl)CC2)CC1` [Cpd 14, 1-(2,6-dichloro-phenyl)-r-3-{t-4-[4-(2-isopropoxy-phenyl)-piperazin-1-yl]-cyclohexyl}-urea] showed a Ki of 50.1 nM. The same measure, in the same setting: in the case of `COc1ccc(Cl)cc1NC(=O)N[C@H]1CC[C@@H](N2CCN(c3ccccc3OC(C)C)CC2)CC1` [Cpd 18, 1-(5-chloro-2-methoxy-phenyl)-r-3-{c-4-[4-(2-isopropoxy-phenyl)-piperazin-1-yl]-cyclohexyl}-urea] it was 207 nM. On the same count and under the same terms, in the case of `COc1ccc(Cl)cc1NC(=O)N[C@H]1CC[C@H](N2CCN(c3ccccc3OC(C)C)CC2)CC1` [Cpd 19, 1-(5-chloro-2-methoxy-phenyl)-r-3-{t-4-[4-(2-isopropoxy-phenyl)-piperazin-1-yl]-cyclohexyl}-urea] it was 81 nM.

The target in another assay is T2, α1d-AR (Homo sapiens, UniProt P25100).
T2 construct: expressed in transfected cells; host or cells: COS-7 cells (membranes)
The assay is described as follows: α1-Adrenergic Receptor Binding Assay (125I-HEAT radio-ligand), α1d subtype. Conditions: membranes of COS-7 cells transfected with α1d subtype; 125I-HEAT 50 pM; rt 1 hr. On the procedure: as §1, §2, §3, §4, §5
Turning to `COc1ccccc1NC(=O)N[C@H]1CC[C@@H](N2CCN(c3ccccc3OC(C)C)CC2)CC1` [Cpd 1, 1-{c-4-[4-(2-isopropoxy-phenyl)-piperazin-1-yl]-cyclohexyl}-r-3-(2-methoxy-phenyl)-urea], the Ki was 73 nM.

Molecule `COc1ccccc1NC(=O)N[C@H]1CC[C@H](N2CCN(c3ccccc3OC(C)C)CC2)CC1` [Cpd 2, 1-{t-4-[4-(2-isopropoxy-phenyl)-piperazin-1-yl]-cyclohexyl}-r-3-(2-methoxy-phenyl)-urea] showed a Ki of 8.7 nM. `CC(C)Oc1ccccc1N1CCN([C@H]2CC[C@H](NC(=O)Nc3ccc(F)c(F)c3)CC2)CC1` [Cpd 8, 1-(3,4-difluoro-phenyl)-r-3-{t-4-[4-(2-isopropoxy-phenyl)-piperazin-1-yl]-cyclohexyl}-urea] yielded a Ki of 1.3 nM.

With `CC(C)Oc1ccccc1N1CCN([C@H]2CC[C@@H](NC(=O)Nc3cccc(Cl)c3)CC2)CC1` [Cpd 11, 1-(3-chloro-phenyl)-r-3-{c-4-[4-(2-isopropoxy-phenyl)-piperazin-1-yl]-cyclohexyl}-urea], the affinity, expressed as Ki, was 29.8 nM. `CC(C)Oc1ccccc1N1CCN([C@H]2CC[C@@H](NC(=O)Nc3c(Cl)cccc3Cl)CC2)CC1` [Cpd 13, 1-(2,6-dichloro-phenyl)-r-3-{c-4-[4-(2-isopropoxy-phenyl)-piperazin-1-yl]-cyclohexyl}-urea] returned a Ki of 15.7 nM.

`CC(C)Oc1ccccc1N1CCN([C@H]2CC[C@@H](NC(=O)Nc3ccc(F)cc3F)CC2)CC1` [Cpd 22, 1-(2,4-difluoro-phenyl)-r-3-{c-4-[4-(2-isopropoxy-phenyl)-piperazin-1-yl]-cyclohexyl}-urea] came in with a Ki of 26.5 nM. This Ki lies about 1.7-fold higher than the previous one. On to `CC(C)Oc1ccccc1N1CCN([C@H]2CC[C@H](NC(=O)Nc3ccc(F)cc3F)CC2)CC1` [Cpd 23, 1-(2,4-difluoro-phenyl)-r-3-{t-4-[4-(2-isopropoxy-phenyl)-piperazin-1-yl]-cyclohexyl}-urea], for which affinity was put at a Ki of 2.7 nM. The same measure, in the same setting: in the case of `CC(C)Oc1ccccc1N1CCN([C@H]2CC[C@@H](NC(=O)Nc3c(F)cccc3F)CC2)CC1` [Cpd 26, 1-(2,6-difluoro-phenyl)-r-3-{c-4-[4-(2-isopropoxy-phenyl)-piperazin-1-yl]-cyclohexyl}-urea] it was 92 nM; in that of `CC(C)Oc1ccccc1N1CCN([C@H]2CC[C@H](NC(=O)Nc3c(F)cccc3F)CC2)CC1` [Cpd 27, 1-(2,6-difluoro-phenyl)-r-3-{t-4-[4-(2-isopropoxy-phenyl)-piperazin-1-yl]-cyclohexyl}-urea], 4.8 nM.
